Test results taken from ChEMBL document CHEMBL1158369, “Hansch analysis of substituted benzoic acid benzylidene/furan-2-yl-methylene hydrazides as antimicrobial agents” (Eur J Med Chem, 2009).

Experiment: Lipophilicity, log P of the compound
Details: octanol/water

O=C(N/N=C/c1cccc([N+](=O)[O-])c1)c1cc([N+](=O)[O-])cc([N+](=O)[O-])c1 showed a logP of 3.29.
